Results on one compound are retold here after PMC11900932 (International Journal of Molecular Sciences, 2025).

Holding throughout (assay): biochemical
Test [1] has as its target T1, SARS-CoV-2 3CL^pro (Severe acute respiratory syndrome coronavirus 2, UniProt P0DTD1).
Test [2] deals with T1, SARS-CoV-2 3CL^pro. The source holds these as a separate data set.
Test [3] concerns the target T1, SARS-CoV-2 3CL^pro. The source holds these as a separate data set.

Counter-ions that a name gives are not always drawn.

What is called Ki is the dissociation constant of the complex between target and ligand, obtained from inhibition or displacement. Broadly, the kinact is the maximal first-order rate at which the target is inactivated. The term IC50 denotes the point on the concentration scale where inhibition reaches its midpoint. One may read the inhibition as the relative decrease from the control value, in per cent. `NC(CO)C(=O)NNCc1ccc(O)c(O)c1O` (stereo not drawn) [Benserazide hydrochloride]: the kon in test [1] (pH 7.4, read-out: binding rate constant ka) was found to be 352 M⁻¹ s⁻¹. In test [1] (read-out: dissociation rate constant kd), the koff was determined as 0.0162 s⁻¹. Moreover, in test [2], the Ki is 2240 nM and the kinact amounted to 0.08 s⁻¹. For the same compound, in test [3], it took 370 ± 20 nM to reach half-maximal inhibition (IC50). For the same compound, the inhibition at 5 µM in test [3] (read-out: inhibition of SARS-CoV-2 3CLpro activity) is above 50%.
